The text below walks through data of PubChem BioAssay AID539 (SRMLSC, 2006).

The list shows a part of the results, in another mix than the full data. Some tests of the compounds listed are not included; inactive here does not mean inactive elsewhere. Activity calls are given as the source filed them.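 The calls were made as follows: active = top-ranked compounds by inhibition in the single 10 µM screen, taking a fixed number of the strongest; inactive = the rest, inconclusive results apart.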

The test relates to phosphomevalonate kinase (Streptococcus pneumoniae D39). The experiment in a line: phosphomevalonate kinase enzyme inhibition – biochemical, mevalonate pathway, pilot trial included, primary screen (AID 539).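 Also: 0% = full reaction with DMSO carrier and 100% = background rate without enzyme reaction.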 Conditions: purified PMK, PK/LDH-coupled NADH absorbance 340 nm; at 10 µM; stronger effect = higher value.
In the case of `CN(C)c1cccc(C(=O)NCC2(N(C)C)CCCCC2)c1`, the inhibition (usually the percentage by which the read-out fell short of the control) is inactive: 18%.

As to `O=C(OC1CN2CCC1CC2)C(CO)(c1ccccc1)c1ccccc1` (configuration not stated), the inhibition was inactive: 9%.
